One assay relates to HCV (−) RNA synthesis. Kind of assay: HCV (−) strand RNA synthesis in the inducible HCV replication system, RNase protection assay. Type of assay: cell-based, hepatitis C virus (genotype 1a, strain H77) in CV-1 cells. The following applies: IFN-α 2000 to 15,000 units/well; added at conclusion of transfection, 20 hours prior to vTF7-3.

In the case of interferon-α-2b [IFN-α], in the assay on HCV (−) RNA synthesis, the “inhibition of HCV (−) RNA synthesis” value is reported as “dose-dependent inhibition”. In addition, the “inhibition of HCV core protein synthesis” value in the assay on HCV core protein is on record as “dose-responsive inhibition”.
